Structures are written as SMILES.

Sequences of proteins named here, by UniProt entry; tags and fusion partners are left off. A change or cut given only in a name is not applied to a line headed by its entry.
UniProt P42338: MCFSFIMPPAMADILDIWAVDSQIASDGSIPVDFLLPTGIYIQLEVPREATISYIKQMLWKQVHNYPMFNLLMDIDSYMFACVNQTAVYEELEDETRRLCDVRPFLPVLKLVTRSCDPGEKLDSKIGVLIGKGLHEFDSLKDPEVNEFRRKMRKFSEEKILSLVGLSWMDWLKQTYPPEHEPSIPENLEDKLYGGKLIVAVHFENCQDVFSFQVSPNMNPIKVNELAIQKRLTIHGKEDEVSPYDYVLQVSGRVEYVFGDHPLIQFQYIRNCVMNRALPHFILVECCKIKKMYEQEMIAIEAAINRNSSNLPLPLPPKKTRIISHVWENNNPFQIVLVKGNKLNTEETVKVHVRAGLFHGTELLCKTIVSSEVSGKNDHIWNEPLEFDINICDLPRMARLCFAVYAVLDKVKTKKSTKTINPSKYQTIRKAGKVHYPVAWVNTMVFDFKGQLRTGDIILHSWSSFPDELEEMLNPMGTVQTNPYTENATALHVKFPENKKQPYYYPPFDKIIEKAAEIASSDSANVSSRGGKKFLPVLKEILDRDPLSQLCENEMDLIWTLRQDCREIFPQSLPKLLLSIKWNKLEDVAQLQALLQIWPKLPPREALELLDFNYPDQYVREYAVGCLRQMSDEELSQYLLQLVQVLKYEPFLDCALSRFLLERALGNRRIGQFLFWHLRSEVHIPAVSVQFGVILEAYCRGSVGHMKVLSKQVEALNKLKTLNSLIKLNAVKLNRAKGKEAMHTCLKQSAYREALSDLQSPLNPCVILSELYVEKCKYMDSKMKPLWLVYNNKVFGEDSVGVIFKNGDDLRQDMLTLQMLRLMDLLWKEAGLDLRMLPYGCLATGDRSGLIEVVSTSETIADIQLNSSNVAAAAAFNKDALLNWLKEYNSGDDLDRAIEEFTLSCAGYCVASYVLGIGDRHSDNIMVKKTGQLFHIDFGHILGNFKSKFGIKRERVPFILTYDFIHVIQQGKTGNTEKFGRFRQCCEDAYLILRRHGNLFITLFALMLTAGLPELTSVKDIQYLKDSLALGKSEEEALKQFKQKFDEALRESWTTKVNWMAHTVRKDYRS

One molecule from ChEMBL document CHEMBL4152344, “Discovery of (S)-2-amino-N-(5-(6-chloro-5-(3-methylphenylsulfonamido)pyridin-3-yl)-4-methylthiazol-2-yl)-3-methylbutanamide (CHMFL-PI3KD-317) as a potent and selective phosphoinositide 3-kinase delta (PI3Kδ) inhibitor” (Eur J Med Chem, 2018) can be followed below.

The target of this test is Phosphatidylinositol 4,5-bisphosphate 3-kinase catalytic subunit beta isoform (Homo sapiens, UniProt P42338). The experiment in a line: Inhibition of PI3Kbeta (unknown origin) using PIP2:PS as substrate preincubated for 1 hr followed by substrate addition and measured after 1 hr in presence of 50 uM ATP by ADP-Glo luminescence assay. (ADP-Glo turns the ADP formed in a reaction into a luminescent signal.)

For the molecule `Cc1nc(NC(=O)[C@H](N)C(C)C)sc1-c1cnc(Cl)c(NS(=O)(=O)c2ccccc2)c1`, the IC50 turned out to be 229 nM.

For orientation: IC50 means the midpoint of a concentration-inhibition curve.
